Results reported in PubChem BioAssay AID652154 (Broad Institute, 2013).
Only a part is listed here, and it is no random draw. Some tests of the compounds listed are not included; inactive here does not mean inactive elsewhere. The source made the active and inactive calls.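 Rule for the calls: active = mean replicate inhibition at least 60% with every replicate also reaching 60%; inconclusive = only one of the two criteria is met; inactive = mean below 60% and not all replicates reaching 60%.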

experiment: inhibitors of PAX8-driven TPO luciferase reporter, primary screen, RMG-I cells, single concentration (AID 652154); conditions: SteadyGlo, 24 h, at 12.6 µM, stronger effect = higher value;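 note: luciferase light reporting Pax8 driven TPO promoter activity; plate controls were median of neutral control wells for no effect and mitoxantrone controls for full effect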

| SMILES | inhibition |
| --- | --- |
| CN(C)C1CCCC1OC(=O)C(O)(c1ccccc1)c1ccccc1 (stereo not drawn) | inactive: 11.6% |
| CN(C)c1ccc(C(=O)NCC2(N(C)C)CCCCC2)cc1 | inactive: -24.5% |
| Cc1ccccc1C(=O)NCC1(N2CCCCC2)CCCCC1 | inactive: 3.86% |
| COc1ccc(C(=O)NCC2(N(C)C)CCCCC2)cc1 | inactive: -25.5% |
| O=C(NCC1(N2CCCCC2)CCCCC1)c1cccc(Br)c1 | inactive: 19.7% |
| Cc1cc(C(=O)NCC2(N3CCCCC3)CCCCC2)ccc1[N+](=O)[O-] | inactive: -15.1% |
| CCN1CCCC(OC(=O)C2(O)c3ccccc3C=Cc3ccccc32)C1 (stereo not drawn) | inactive: 20.5% |
| O=C(NCC1(N2CCCCC2)CCCCC1)c1cc(F)c(F)cc1Cl | inactive: 8.7% |
| C=CCN1CCN(CCOC(=O)C(O)(c2ccccc2)c2ccccc2)CC1 | inactive: 20.2% |
| CN1[C@@H]2CC[C@H]1CC(OC(=O)C(O)(c1ccccc1)c1ccccc1)C2 (stereo partly drawn) | inactive: -108% |
| O=C(NCC1(N2CCCCC2)CCCCC1)c1cc([N+](=O)[O-])ccc1Cl | inactive: 6.73% |
| Cc1ccc(C(=O)NCC2(N3CCCCC3)CCCCC2)cc1 | inactive: 21.4% |
| COc1cc(SC)ccc1C(=O)NCC1(N(C)C)CCCCC1 | inactive: 8.54% |
| CCN(CC)CC(C)C(C)OC(=O)C(O)(c1ccccc1)c1ccccc1 (stereo not drawn) | inactive: 1.09% |
| O=C(OCCN1CCCC1)C(O)(c1ccccc1)c1ccccc1 | inactive: 0.598% |
| CC(C)Oc1ccc(C(=O)NCC2(N(C)C)CCCCC2)cc1 | inactive: -18.1% |
| C=C(C)C#CC(O)(C(=O)OC1CCN(C)CC1)c1ccccc1 (stereo not drawn) | inactive: -3.48% |
| COc1ccc(Br)c(C(=O)NCC2(N3CCCCC3)CCCCC2)c1 | inactive: 8.45% |
| COc1cc(C(=O)NCC2(N(C)C)CCCCC2)c([N+](=O)[O-])cc1OC | inactive: 3.93% |
| CN(C)C1(CNC(=O)c2ccc(Br)cc2)CCCCC1 | inactive: 13.1% |
| O=C(NCC1(N2CCCCC2)CCCCC1)c1cccc(Cl)c1 | inactive: 13.6% |
| COc1ccc(Cl)cc1C(=O)NCC1(N(C)C)CCCCC1 | inactive: -3.46% |
| COc1cccc(C(=O)NCC2(N3CCCCC3)CCCCC2)c1 | inactive: -3.58% |
